Measurements as given in patent publication US6667034B2, “METHODS FOR REGULATING THE SPECIFIC LINEAGES OF CELLS PRODUCED IN A HUMAN HEMATOPOIETIC CELL CULTURE, METHODS FOR ASSAYING THE EFFECT OF SUBSTANCES ON LINEAGE-SPECIFIC CELL PRODUCTION, AND CELL COMPOSITIONS PRODUCED BY THESE CULTURES” (The Regents of the University of Michigan, priority 1989, dated 2003).

Columns and labels:
Type in all cases: cell-based
Human bone marrow cells [1] = assay: Nonadherent cell production in rapidly exchanged growth factor supplemented LTBMCs (Example 2); settings: throughout the 18 weeks of culture; 50% daily medium exchange; IL-3 1 ng/ml, Epo 0.1 U/ml
Human bone marrow cells [2] = assay: Morphologic analysis of nonadherent cells from HGF supplemented LTBMCs (Example 2); settings: at week 18
Description: Methycellulose and morphologic assays: Once every other week, the non-adherent cells removed for cell counts were plated in methylcellulose in the presence of erythropoietien, GM-CSF, and IL-3, and the Granulocyte Macrophage-Colony Forming Units (CFU-GM) were enumerated. Aliquots of removed cells were cytocentrifuged, stained with Wright-Giemsa, and differential cell counts were performed.
Hematopoietic growth factors (HGH): Due to the frequent culture supplementation via rapid medium exchange, hematopoietic growth factors were added daily to the medium at approximately 1/20 of the concentrations found to promote maximal colony formation in clonal assays. […]
LTBMC conditions: The cultures were incubated at 37° C. in a humidified 5% CO2/95% air atmosphere and perfused (medium exchanged) at a rate of 50% daily medium exchange. […] After the first week in culture, 50% of the total nonadherent cells were removed from the cultures on a biweekly basis during the medium exchange, mononucleated cells counted, and fresh medium returned to the wells. The remaining five days per week when the cells were not counted, 50% of the medium was removed from each of the culture wells and replaced with fresh medium, the removed medium was centrifuged, the medium decanted from the cell pellet, and the cells returned to their original wells.

Human bone marrow cells [3] = assay: Hematopoietic progenitor cell assay in methylcellulose (CFU-GM, BFU-E, CFU-GEMM) of nonadherent cells from HGF supplemented LTBMCs (Example 2); settings: single growth factor alone
Description: (§1) Hematopoietic progenitor cell assay: Nonadherent hematopoietic cells removed from culture were counted and plated at 1·10^5 cells/ml or fewer cells in methylcellulose. […] The cells were plated in 24 well plates at 0.25 ml/well and incubated at 37° C. for 14 days. The colonies were then counted under an inverted microscope and colonies greater than 50 cells were scored as GM-colony forming units (CFU-GM), erythroid burst-forming unit (BFU-E), or granulocyte erythroid megakaryocyte macrophage-colony forming unit (CFU-GEMM).

Human bone marrow cells [4] = assay: Cumulative cell production by cell lineage in growth factor supplemented LTBMCs over the first 6.5 weeks (Example 5, Table 4); settings: first 6.5 weeks of culture
From the text: Cells, hematopoietic progenitor cell assays, LTBMCs, and statistical analyses were as in Example 1.

Human bone marrow cells [5] = assay: Cumulative number of progenitor cells removed from rapidly perfused HGF supplemented LTBMCs (Example 5, Table 5)
Description: as §1, with “(CFU-GEMM). Cells, hematopoietic progenitor cell assays, LTBMCs, and statistical analyses were as in Example 1.” for “(CFU-GEMM).”

Human bone marrow cells [6] = assay: Population balance: cumulative production of BFU-E removed and differentiated in HGF supplemented LTBMCs (Example 5, Table 6)
From the text: (§2) Production of Progenitor Cells from Stem Cells. Although the most primitive hematopoietic cells that can be directly assayed are the progenitor cells; CFU-GEMM, CFU-GM, and BFU-E, the presence and activity or earlier stem cells can be inferred by the continued production of progenitor cells. Thus, progenitor cell production is an indirect measure of primitive stem cell activity. One can assay stem cells, therefore, by analyzing the kinetics of the progenitor cell pool. The four process rates that determine the progenitor cell pool size are: V1: The rate of production of progenitor cells by more undifferentiated stem cells; V2: The rate of loss of progenitor cells through the act of sampling of nonadherent cells from the culture; V3: The rate of loss of progenitor cells by their differentiation to mature cells of a particular lineage; V4: The rate of death of progenitor cells. The initial number, C0, of each progenitor cell species can be determined by assay at culture initiation. The question that we wish to answer is; Are stem cells being stimulated to produced progenitor cells—i.e. is V1 greater than zero? Cell death, V4, cannot be assessed. V2 however, can be measured by assaying the nonadherent cells removed from culture, and V3 can be estimated from nonadherent cell production data. A conservative estimate of the rate of progenitor cell differentiation, V3, can be determined by assuming that each progenitor cell has 10 divisions remaining to become a terminally differentiated cell. Therefore, each progenitor cell is equivalent to 2^10 (1024) mature cells. From the total number of mature cells produced of a specific lineage, the number of progenitor cells (BFU-E and CFU-GM) that differentiated can be back-calculated. Therefore, if the removal and differentiation of progenitor cells (V2+V3) exceeds the numbers of progenitor cells inoculated, Co, then progenitor cells must have been produced, and V1 is greater than zero.

Human bone marrow cells [7] = assay: Population balance: cumulative production of CFU-GM removed and differentiated in HGF supplemented LTBMCs (Example 5, Table 7)
From the text: as §2

[8] = IL-3 1 ng/ml, GM-CSF 1 ng/ml, Epo 0.1 U/ml, IL-6 10 U/ml, G-CSF 0.1 ng/ml
[9] = cumulative, rapidly perfused LTBMCs
[10] = rapidly perfused HGF supplemented LTBMCs
[11] = back-calculated assuming each progenitor cell is equivalent to 2^10 (1024) mature cells

B1: IL-3: hematopoietic growth factor (cytokine) added daily to the medium at 1 ng/ml (protein, UniProt P08700 20-152, looked up)
Interleukin-3: APMTQTTPLKTSWVNCSNMIDEIITHLKQPPLPLLDFNNLNGEDQDILMENNLRRPNLEAFNRAVKSLQNASAIESILKNLLPCLPLATAAPTRHPIHIKDGDWNEFRRKLTFYLKTLENAQAQQTTLSLAIF
- average increase in nonadherent cell production over controls (Human bone marrow cells [1]): 175%
- percentage of nonadherent cells being late granulocytes (LG) (Human bone marrow cells [2]): about 20%
- effect on BFU-E production (Human bone marrow cells [3]): mild short-lived stimulation of BFU-E production in weeks 3-5
- Cumulative cell production: Early Granulocytes (EG) (Human bone marrow cells [4]; [8]): 3.0 ×10^6 cells per culture
- Cumulative cell production: Erythroid (E) (Human bone marrow cells [4]; [8]): 0.14 ×10^6 cells per culture
- Cumulative cell production: Late Granulocytes (LG) (Human bone marrow cells [4]; [8]): 3.1 ×10^6 cells per culture
- Cumulative cell production: Macrophages (Mo) (Human bone marrow cells [4]; [8]): 2.9 ×10^6 cells per culture
- ratio (LG/EG) (Human bone marrow cells [4]; late to early granulocytes): 1
- increase in the total number of CFU-GEMM removed from culture (Human bone marrow cells [5]; [9]): 1.8 fold
- effect on total CFU-GM (Human bone marrow cells [5]; individual growth factor): only a slight increase
- cumulative number of progenitor cells removed: BFU-E (Human bone marrow cells [5]; [10]): 1900
- cumulative number of progenitor cells removed: CFU-GEMM (Human bone marrow cells [5]; [10]): 90
- cumulative number of progenitor cells removed: CFU-GM (Human bone marrow cells [5]; [10]): 2100
- Estimated number of BFU-E that differentiated (V3) (Human bone marrow cells [6]; [11]): 100
- Number of erythroid cells removed (×10^4) (V3) (Human bone marrow cells [6]; [9]): 0.1 ×10^4
- Number of BFU-E removed (plated) (V3) (Human bone marrow cells [6]; every fourth biweekly sampling assayed, others by linear interpolation, inoculum 2900 BFU-E): 1900
- Total number of BFU-E (V3) (Human bone marrow cells [6]; removed plus differentiated, inoculum 2900): 2000
- Estimated number of CFU-GM that differentiated (V3) (Human bone marrow cells [7]; [11]): 9000
- Number of GM cells removed (×10^4) (V3) (Human bone marrow cells [7]; [9]): 9.0 ×10^4
- Number of CFU-GM removed (plated) (V2) (Human bone marrow cells [7]; every fourth biweekly sampling assayed, others by linear interpolation, inoculum 2500 CFU-GM): 2100
- Total number of CFU-GM (V3) (Human bone marrow cells [7]; removed plus differentiated): 11,100
